Source: ChEMBL document CHEMBL1142050, “A two-state homology model of the hERG K+ channel: application to ligand binding” (Bioorg Med Chem Lett, 2005)

Chains of the proteins cited; added tags and fusions are not shown. Lines headed by an entry give the natural chain unless they say otherwise; changes in a name come on top.
UniProt Q12809: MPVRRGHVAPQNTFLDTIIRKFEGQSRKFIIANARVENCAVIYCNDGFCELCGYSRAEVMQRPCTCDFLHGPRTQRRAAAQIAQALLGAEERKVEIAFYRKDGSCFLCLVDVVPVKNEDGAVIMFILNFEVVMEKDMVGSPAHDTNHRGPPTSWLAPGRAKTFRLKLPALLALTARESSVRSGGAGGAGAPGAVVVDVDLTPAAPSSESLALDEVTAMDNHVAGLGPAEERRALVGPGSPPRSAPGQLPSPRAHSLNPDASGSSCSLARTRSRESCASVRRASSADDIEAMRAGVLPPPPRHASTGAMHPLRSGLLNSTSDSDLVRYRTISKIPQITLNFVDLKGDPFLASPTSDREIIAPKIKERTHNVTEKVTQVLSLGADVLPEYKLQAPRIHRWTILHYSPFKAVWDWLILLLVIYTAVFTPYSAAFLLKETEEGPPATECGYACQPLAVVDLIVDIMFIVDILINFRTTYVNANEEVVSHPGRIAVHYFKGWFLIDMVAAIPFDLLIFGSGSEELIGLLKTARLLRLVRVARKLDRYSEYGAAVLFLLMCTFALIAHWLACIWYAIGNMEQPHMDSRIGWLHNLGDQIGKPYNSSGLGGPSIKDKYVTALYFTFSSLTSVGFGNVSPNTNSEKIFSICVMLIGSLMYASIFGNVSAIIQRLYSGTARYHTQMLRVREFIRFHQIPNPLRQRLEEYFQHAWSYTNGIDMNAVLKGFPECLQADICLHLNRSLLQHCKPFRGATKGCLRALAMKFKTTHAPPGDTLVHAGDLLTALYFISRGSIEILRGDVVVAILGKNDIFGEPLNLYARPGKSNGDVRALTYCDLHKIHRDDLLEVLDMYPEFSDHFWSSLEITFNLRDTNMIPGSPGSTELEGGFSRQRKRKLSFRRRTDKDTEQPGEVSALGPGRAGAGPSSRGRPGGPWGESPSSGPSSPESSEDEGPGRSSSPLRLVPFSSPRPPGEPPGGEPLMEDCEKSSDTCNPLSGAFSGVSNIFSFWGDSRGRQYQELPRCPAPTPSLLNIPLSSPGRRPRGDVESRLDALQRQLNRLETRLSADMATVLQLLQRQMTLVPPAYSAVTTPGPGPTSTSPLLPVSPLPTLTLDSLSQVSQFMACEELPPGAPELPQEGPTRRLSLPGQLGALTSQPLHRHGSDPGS

Target: Voltage-gated inwardly rectifying potassium channel KCNH2 (Homo sapiens, UniProt Q12809)

## O=C1Cc2cc(CCN3CCN(c4nsc5ccccc45)CC3)c(Cl)cc2N1 [ZIPRASIDONE]
  IC50: 151 nM
